# Data reported in ChEMBL document CHEMBL1132454 (J Med Chem, 1999).
# Sequences of proteins named here, by UniProt entry; tags and fusion partners are left off.
# UniProt Q9WTR4, whole entry: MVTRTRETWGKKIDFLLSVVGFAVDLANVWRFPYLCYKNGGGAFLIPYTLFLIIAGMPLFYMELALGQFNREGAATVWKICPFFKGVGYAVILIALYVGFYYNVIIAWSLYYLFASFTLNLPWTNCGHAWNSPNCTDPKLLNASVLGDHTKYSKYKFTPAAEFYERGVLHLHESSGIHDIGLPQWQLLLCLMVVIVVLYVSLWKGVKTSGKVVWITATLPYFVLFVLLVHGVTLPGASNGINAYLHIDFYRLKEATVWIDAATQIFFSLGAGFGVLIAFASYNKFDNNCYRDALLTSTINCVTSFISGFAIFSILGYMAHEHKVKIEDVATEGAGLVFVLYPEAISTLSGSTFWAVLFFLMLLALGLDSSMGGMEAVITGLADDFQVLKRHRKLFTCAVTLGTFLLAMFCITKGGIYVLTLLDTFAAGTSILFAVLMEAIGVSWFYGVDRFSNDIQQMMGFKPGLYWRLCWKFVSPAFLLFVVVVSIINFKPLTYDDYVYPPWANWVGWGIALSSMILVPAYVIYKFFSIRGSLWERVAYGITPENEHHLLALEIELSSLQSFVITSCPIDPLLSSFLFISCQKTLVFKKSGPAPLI
# Target: Norepinephrine transporter (Rattus norvegicus, UniProt Q9WTR4)
# Experiment: The compound was tested for binding affinity nisoxatine ligand
# Outline: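 Male Sprague-Dawley rat frontal cortex membranes in 50 mM Tris, 120 mM NaCl, 5 mM KCl, pH 7.4; 8 mg original wet tissue per tube. Incubation with 0.5 nM [3H]nisoxetine for 60 min at 0-4 °C. Nonspecific binding with 1 μM desipramine. Filtration and scintillation counting; Ki from at least three experiments in triplicate.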
structure (smiles),measurement,value
COC(=O)[C@H]1[C@@H](OC(=O)c2ccccc2)C[C@@H]2CC[C@H]1N2C [COCAINE],Ki,3.3 µM
